Measurements: PMC7144325, “Discovery of novel ATAD2 bromodomain inhibitors that trigger apoptosis and autophagy in breast cells by structure-based virtual screening” (Journal of Enzyme Inhibition and Medicinal Chemistry, 2020)

Target: T1, ATAD2 bromodomain (Homo sapiens, UniProt Q6PL18)
T1 sequence (Q6PL18 980-1092 limits assumed): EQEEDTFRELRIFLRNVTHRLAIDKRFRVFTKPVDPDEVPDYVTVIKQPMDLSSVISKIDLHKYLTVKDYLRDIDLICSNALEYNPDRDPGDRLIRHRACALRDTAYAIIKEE
Experiment: TR-FRET assay, ATAD2 bromodomain
Type: binding
Details: read-out: ATAD2 enzyme inhibition rate
Method: The assay was performed by TR-FRET technology using recombinant bromodomain and BET Ligand[27]. The compounds were diluted in 100% DMSO. They were diluted 20 fold in 5% DMSO in Reaction Buffer and 2 µl of the dilution was added to a 20 µl reaction. The reaction mixture incubated for 180 min prior to reading the TR-FRET signal. TR-FRET was recorded as the ratio of the fluorescence of the acceptor and the donor dyes (acceptor/donor). Binding experiments were performed in duplicate at each concentration. The TR-FRET data were analysed using the computer software, Graphpad Prism.

Question: How did the inhibition at 20 µM turn out when `CC1=C(C#N)c2nc(N)c(C#N)c(C)c2/C1=C\c1ccc(-c2cc(C(=O)O)ccc2Cl)o1` [AM879] was run?
Answer: 75%
